Assay results from ChEMBL document CHEMBL3286387, “α-Tetralone derivatives as inhibitors of monoamine oxidase” (Bioorg Med Chem Lett, 2014).

The chains behind the UniProt entries cited, without tags or fusion partners.
UniProt P27338, whole entry: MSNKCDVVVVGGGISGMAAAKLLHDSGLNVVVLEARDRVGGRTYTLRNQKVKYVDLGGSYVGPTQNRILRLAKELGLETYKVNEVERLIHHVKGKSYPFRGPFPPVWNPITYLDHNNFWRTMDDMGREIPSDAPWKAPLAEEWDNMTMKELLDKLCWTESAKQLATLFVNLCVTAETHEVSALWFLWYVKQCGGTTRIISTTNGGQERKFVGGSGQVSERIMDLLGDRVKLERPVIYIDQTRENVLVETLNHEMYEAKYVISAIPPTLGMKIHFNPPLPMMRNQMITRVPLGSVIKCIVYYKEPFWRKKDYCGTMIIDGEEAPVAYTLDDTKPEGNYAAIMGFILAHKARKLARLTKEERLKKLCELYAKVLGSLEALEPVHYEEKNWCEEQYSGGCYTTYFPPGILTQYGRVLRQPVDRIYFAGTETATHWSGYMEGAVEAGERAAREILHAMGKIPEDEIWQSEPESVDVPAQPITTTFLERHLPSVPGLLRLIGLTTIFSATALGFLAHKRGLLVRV

Assays:
[1] = target: Amine oxidase [flavin-containing] B (Homo sapiens, UniProt P27338); test: Inhibition of recombinant human MAO-B using kynuramine as substrate assessed as 4-hydroxyquinoline production after 30 mins by fluorescence spectrophotometry analysis
[2] = species on record: Homo sapiens; test: Selectivity index, ratio of IC50 for recombinant human MAO-A to IC50 for recombinant human MAO-B

## O=C1CCCc2cc(OCc3ccc(Cl)cc3)ccc21
[1]
  IC50: 7 nM
[2]
  Ratio IC50: 34
